# Assay results published in patent US20250206732A1, “COMPOUNDS AND METHODS FOR THE TARGETED DEGRADATION OF KRAS” (Arvinas Operations, Inc., priority 2022, published 2025).
# Amino acid sequences for entries named in this document (tags omitted). Residues count along the entry.
# UniProt P01116, 1-188 isoform 2 G12C: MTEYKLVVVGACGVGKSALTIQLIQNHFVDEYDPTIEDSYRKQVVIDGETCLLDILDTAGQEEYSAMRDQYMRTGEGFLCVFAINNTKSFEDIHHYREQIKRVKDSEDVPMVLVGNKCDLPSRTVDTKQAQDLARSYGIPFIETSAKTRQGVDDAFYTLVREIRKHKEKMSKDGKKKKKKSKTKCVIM
# UniProt P01116, 1-188 isoform 2 G12D: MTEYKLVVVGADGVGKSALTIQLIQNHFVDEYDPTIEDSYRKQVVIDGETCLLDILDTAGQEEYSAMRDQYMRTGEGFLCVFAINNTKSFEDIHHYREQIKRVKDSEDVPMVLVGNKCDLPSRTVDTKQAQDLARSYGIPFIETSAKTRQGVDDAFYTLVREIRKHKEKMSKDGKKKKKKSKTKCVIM
# How the values were obtained:
# SW1573 HiBiT-KRASG12C = SW1573 HiBiT-KRASG12C (Homo sapiens, UniProt P01116, G12C); test: HiBiT degradation assay (G12C), SW1573 HiBiT-KRASG12C cells; settings: read-out: SW1573 HiBiT-KRASG12C DC50, 24 hours treatment, HiBiT luminescence
# Method: Reagents. SW1573 (CRL-2170), AsPC-1 (CRL-1682), and SW620 (CCL-227) cells were purchased from ATCC. SW1573 cells are homozygous for the G12C mutation in KRAS, AsPC-1 cells are homozygous for the G12D mutation, and SW620 cells are homozygous for the G12V mutation. SW1573 cells were cultured in DMEM+F12+Glutamax (+Sodium Bicarbonate, +sodium pyruvate, ThermoFisher scientific, #10565) supplemented with 10% FBS (ThermoFisher scientific, #2060357) and 1% Antibiotic-Antimycotic (ThermoFisher scientific, #15240096). […]
# HiBiT-tagged cell line generation. […] A luminescent band of the correct size for HiBiT-KRASG12C was detected in several clones. […]
# HiBiT degradation assays (G12C and G12D). […] Plates were then allowed to equilibrate to room temperature and fluorescence was measured using a Perkin-Elmer EnVision. After completion of the fluorescence read, the liquid from each well was removed and the cells were washed with PBS. […] Following incubation at room temperature for 45 minutes, the luminescence was read using the ultra-sensitive luminescence aperture on the Envision instrument.
# Data analysis. Fluorescence values from the alamar blue treatment were normalized to the DMSO-only control for each compound titration. […]
# AsPC-1 HiBiT-KRASG12D = AsPC-1 HiBiT-KRASG12D (Homo sapiens, UniProt P01116, G12D); test: HiBiT degradation assay (G12D), AsPC-1 HiBiT-KRASG12D cells; settings: read-out: AsPC-1 HiBiT-KRASG12D DC50, 24 hours treatment, HiBiT luminescence
smiles,measurement,setting,value
CCc1cccc2cc(O)cc(-c3ncc4c(N5CC6CCC(C6)C5)nc(OCCN5CCC(COc6cc([C@H](C(=O)N7C[C@H](O)C[C@H]7C(=O)N[C@@H](C)c7ccc(-c8scnc8C)cc7)C(C)C)on6)CC5)nc4c3F)c12,DC50,SW1573 HiBiT-KRASG12C,> 3000 nM
same,DC50,AsPC-1 HiBiT-KRASG12D,> 3000 nM
